Literature values as cited in patent US20100069382A1, “Agent for prophylaxis or treatment of alcohol dependence or drug dependence” (priority 2006, published 2010).

Chains of the proteins cited; added tags and fusions are not shown. Lines headed by an entry give the natural chain unless they say otherwise; changes in a name come on top.
UniProt P41146: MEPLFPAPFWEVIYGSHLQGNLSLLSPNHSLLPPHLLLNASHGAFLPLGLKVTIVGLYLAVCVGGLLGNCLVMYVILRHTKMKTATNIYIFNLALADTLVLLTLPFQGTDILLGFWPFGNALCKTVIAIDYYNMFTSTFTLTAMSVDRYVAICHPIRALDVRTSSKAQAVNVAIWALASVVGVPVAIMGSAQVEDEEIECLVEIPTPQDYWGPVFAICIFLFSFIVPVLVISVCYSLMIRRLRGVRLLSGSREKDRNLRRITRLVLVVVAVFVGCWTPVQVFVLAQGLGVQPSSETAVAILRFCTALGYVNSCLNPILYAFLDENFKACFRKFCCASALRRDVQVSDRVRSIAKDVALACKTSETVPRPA

Target: ORL-1 receptor (Homo sapiens, UniProt P41146)
Conditions: WO03/082333; cited from earlier work

Structure (SMILES): CNC(=O)Cn1c(=O)n(C2CCN([C@@H]3Cc4cccc5cccc3c45)CC2)c2ccccc21 [Compound A, (R)-2-{3-[1-(acenaphthen-1-yl)piperidin-4-yl]-2,3-dihydro-2-oxo-benzimidazol-1-yl}-N-methylacetamide]
- affinity for ORL-1 receptors (selectivity): highly selective affinity
